Experimental data from US20260132140A1, “IMIDAZOLYL-AMINO-PYRAZINE-CARBONITRILS AS CHK-1 INHIBITORS” (BenevolentAI Bio Limited, priority 2022, published 2026).

Tested on: 373 human wild-type kinases
Assay: Kinome selectivity, Eurofins KinaseProfiler kinase screen
Assay type: biochemical
Conditions: panel of 373 human wild-type kinases, approximately ATP Km, top concentration 10 μM
From the text: The radiometric kinase activity assays were run at approximately the ATP Km for each kinase.

| Structure (SMILES) | Number of 372 kinases inhibited relative to Chk1 IC50 Within 10-fold | Number of 372 kinases inhibited relative to Chk1 IC50 Within 100-fold |
| --- | --- | --- |
| CN(C)[C@@H]1CCN(c2ccc(-n3cnc(Nc4cnc(C#N)cn4)c3)nc2)C1 [Example 50, (R)-5-((1-(5-(3-(Dimethylamino)pyrrolidin-1-yl)pyridin-2-yl)-1H-imidazol-4-yl)amino)pyrazine-2-carbonitrile] | 1 | 5 |
| C[C@@H]1C[C@@H](N2CCC2)CN1c1ccc(-n2cnc(Nc3cnc(C#N)cn3)c2)cc1 [Example 98, 5-((1-(4-((2R,4R)-4-(Azetidin-1-yl)-2-methylpyrrolidin-1-yl)phenyl)-1H-imidazol-4-yl)amino)pyrazine-2-carbonitrile] | 1 | 8 |
